The source of these data is patent US10499648B2, “Sterilization method, formulation for sterilization use, and device for producing sterilizing liquid” (priority 2014, dated 2019).

Data set [1] is described as follows: Lifetime / decomposition of synthesized peroxynitric acid depending on temperature. Type of data set: physicochemical. Conditions: rate doubles per 5 degrees rise. The text has this:
The synthesis reaction of peroxynitric acid progresses also at a room temperature. To be specific, peroxynitric acid is synthesized at a room temperature; however, the lifetime of the synthesized peroxynitric acid depends on temperature. Where being saved at a room temperature, the synthesized peroxynitric acid is quickly decomposed to turn into nitric acid in a short time. When the temperature rises by 5 degrees, the rate of decomposition doubles. For example, the rate of decomposition at a temperature of 20° C. is 16 times as fast as that at a temperature of 0° C. (zero). Thus, the synthesized peroxynitric acid turns into nitric acid solution very quickly at a temperature of 50° C. The half-life of the peroxynitric acid is 10 minutes or so at a room temperature. The half-life of the peroxynitric acid is a few hours (2 to 3 hours or so) at a temperature of 0 (zero) degrees.
In order to preserve the solution with the biocidal activity maintained, it is preferable to set the temperature of the solution as low as possible. For example, the solution is adjusted to have a temperature of 0° C., which enables the solution to be stored/preserved for a couple of hours, for example, for 5 to 8 hours or so. Freezing the solution allow the solution to be preserved for a longer time.

In data set [2] the test system is living microorganisms. The experiment in a line: Expected sterilization effect of undiluted synthesized peroxynitric acid solution. Conditions: undiluted solution of the fourth embodiment, 420 mM peroxynitric acid.
The subject of data set [3] is living microorganisms. The data set is described as follows: Sterilization effect of substances fractionated by ion chromatography at different retention times (FIG. 5). Conditions: solution of the fourth embodiment, 0° C., eluant 10 mM HCl pH 2.0.

Turning to peroxynitric acid, the “rate of decomposition at 20° C. relative to 0° C.” value in data set [1] is 16 times. For the same substance, the “further lowering of the number of living microorganisms” value in the data set on living microorganisms [2] was ≥ 3000 orders of magnitude. The “sterilization effect of the fractionated substance (LOG CFU trough)” value in the data set with living microorganisms [3] is “biocidal activity species”.
